Legend:
[1] = molecular target: fibrin clots formed in human plasma (human (endogenous in plasma)) (UniProt P02679)
[2] = molecular target: fibrin clots formed in human plasma (human (endogenous in plasma)) (UniProt P02679); assay: co-sedimentation; time course: enhanced clots formed in plasma with 125I-ligand (25,000 cpm), eight times from 0 to 960 min at 37°C; washed with HEPES-1/2-saline (non-denaturing)
[3] = molecular target: fibrin clots formed in human plasma (human (endogenous in plasma)) (UniProt P02679); assay: co-sedimentation; panel of 125I-labelled plasma proteins (25,000 cpm each) present while enhanced clots formed in plasma; 16 h, 37°C; clots washed three times in 10 mM HEPES, 70 mM NaCl, 0.5 mM EDTA, 5 M urea pH 7.4
[4] = molecular target: fibrin clots formed in human plasma (human (endogenous in plasma)) (UniProt P02679); assay: co-sedimentation; time course: enhanced clots formed in plasma with 125I-ligand (25,000 cpm), eight times from 0 to 960 min at 37°C; washed three times with 10 mM HEPES, 70 mM NaCl, 0.5 mM EDTA, 5 M urea pH 7.4; what stays is judged covalently bound
[5] = molecular target: fibrin clots formed in human plasma (human (endogenous in plasma)) (UniProt P02679); assay: co-sedimentation; clots formed in 45% human plasma with 20 mM CaCl2 in the presence of 125I-ligand (25,000 cpm), 40 min, 37°C, at about 70 mM, 140 mM or 1 M salt; clots spun at 1,000 x g and washed three times in reaction buffer; bound = input minus cpm in supernatants

Chains of the proteins cited; added tags and fusions are not shown. Lines headed by an entry give the natural chain unless they say otherwise; changes in a name come on top. Residues count along the entry.
UniProt P02679: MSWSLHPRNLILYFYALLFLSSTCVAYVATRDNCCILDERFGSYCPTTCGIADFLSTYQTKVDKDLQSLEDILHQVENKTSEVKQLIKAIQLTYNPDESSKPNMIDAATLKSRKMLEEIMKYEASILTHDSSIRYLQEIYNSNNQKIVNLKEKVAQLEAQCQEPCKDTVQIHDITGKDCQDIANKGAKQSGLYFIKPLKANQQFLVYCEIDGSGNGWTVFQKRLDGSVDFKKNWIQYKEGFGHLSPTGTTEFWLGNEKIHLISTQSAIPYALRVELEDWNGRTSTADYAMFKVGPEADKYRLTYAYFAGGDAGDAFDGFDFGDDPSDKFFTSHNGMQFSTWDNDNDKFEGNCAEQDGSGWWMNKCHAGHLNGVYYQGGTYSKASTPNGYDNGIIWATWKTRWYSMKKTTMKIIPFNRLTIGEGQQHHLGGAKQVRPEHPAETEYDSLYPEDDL
UniProt P02745, 23-245: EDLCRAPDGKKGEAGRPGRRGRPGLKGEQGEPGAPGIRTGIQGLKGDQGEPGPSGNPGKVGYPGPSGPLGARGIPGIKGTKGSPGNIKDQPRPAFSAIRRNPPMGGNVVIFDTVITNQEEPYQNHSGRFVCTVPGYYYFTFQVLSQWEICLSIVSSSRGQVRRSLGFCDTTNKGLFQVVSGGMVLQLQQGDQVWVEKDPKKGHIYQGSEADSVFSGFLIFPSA
C1q, UniProt P02746, 28-253: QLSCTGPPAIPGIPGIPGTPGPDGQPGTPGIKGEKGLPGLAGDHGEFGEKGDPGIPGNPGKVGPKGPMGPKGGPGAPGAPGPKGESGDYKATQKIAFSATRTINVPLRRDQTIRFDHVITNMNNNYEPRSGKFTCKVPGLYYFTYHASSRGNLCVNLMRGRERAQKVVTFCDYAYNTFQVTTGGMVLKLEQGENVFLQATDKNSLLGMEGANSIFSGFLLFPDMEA
C1q, UniProt P02747, 29-245: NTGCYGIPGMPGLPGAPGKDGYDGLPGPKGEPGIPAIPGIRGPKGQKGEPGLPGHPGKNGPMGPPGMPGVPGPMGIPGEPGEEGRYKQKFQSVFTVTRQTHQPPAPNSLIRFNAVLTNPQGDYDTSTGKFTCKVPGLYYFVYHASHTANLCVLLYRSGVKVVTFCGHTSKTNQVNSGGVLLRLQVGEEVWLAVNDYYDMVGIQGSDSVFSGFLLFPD

- percent bound after 16 h, non-denaturing wash [2]: 24%
- percent bound at 30 min, non-denaturing wash [2]: 13%
- Protein incorporated into fibrin clots (%) [3]: 30.2%
- percent bound to fibrin clots [3]: 28.5%
- percent bound at 30 min, after urea wash [4]: 11%
- percent bound at 960 min, after urea wash [4]: 17.6%
- percent bound to plasma clots at 70 mM salt [5]: 2.5%
Substance: C1q (from UniProt P02745 23-245; P02746 28-253; P02747 29-245) (complex)
- decrease in C4 activity (haemolytic C4 consumption assay) after clotting of factor H-depleted plasma, against factor H-depleted unclotted plasma [1]: 65.3%
- decrease in C4 activity (haemolytic C4 consumption assay) after clotting of normal human plasma, against normal unclotted plasma [1]: 42.5%

From article PMC11199686
